Measured values as given in paper PMC4112151 (Bioorganic & medicinal chemistry, 2014).

Chains of the proteins cited; added tags and fusions are not shown. Lines headed by an entry give the natural chain unless they say otherwise; changes in a name come on top.
UniProt P41145: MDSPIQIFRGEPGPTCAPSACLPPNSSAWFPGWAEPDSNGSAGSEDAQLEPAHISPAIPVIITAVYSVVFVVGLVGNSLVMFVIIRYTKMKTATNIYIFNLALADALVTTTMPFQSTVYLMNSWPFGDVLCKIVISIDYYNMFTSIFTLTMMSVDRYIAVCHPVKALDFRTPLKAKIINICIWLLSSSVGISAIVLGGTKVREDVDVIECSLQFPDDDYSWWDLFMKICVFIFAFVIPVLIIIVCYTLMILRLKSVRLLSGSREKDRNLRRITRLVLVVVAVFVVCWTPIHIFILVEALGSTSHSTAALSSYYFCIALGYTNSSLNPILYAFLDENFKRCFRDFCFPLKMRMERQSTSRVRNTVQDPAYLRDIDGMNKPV

Target: KOPr (Homo sapiens, UniProt P41145)
Assay: [35S]GTPγS binding, CHO membranes, standard U69593
Format: biochemical
Details: Ke/nM KOPr, antagonist Ke versus U69593, single agonist concentration

Oc1ccc2c3c1O[C@H]1c4[nH]c5ccccc5c4C[C@@]4(O)[C@@H](C2)N(CC2CC2)CC[C@]314 [Naltrindole, naltrindole, reference compound]
Kd: 4.95 nM
